The test system of this assay is KYSE-150 esophageal carcinoma cell line. Nature of the assay: In vitro cell-based assay: cellular proliferation via BrdU incorporation ELISA. Conditions: KYSE-150 cells, 168 hours compound incubation. Set-up: species or system human.

What is called IC50 is the midpoint of a concentration-inhibition curve. Read a low IC50 as greater potency in that assay. In the case of “3-{[(6-chloro-1-hydroxy-1,2,3,4- tetrahydronaphthalen-1- yl)methyl]amino}pyridine-4-carboxylic acid [Example 67]”, the IC50 was 1 to 10 µM.

Source of the values: US9611221B2, “Histone demethylase inhibitors” (CELGENE QUANTICEL RESEARCH, INC., priority 2012, dated 2017).
